Screening results: PubChem BioAssay, Broad Institute
miR-122 sensor: inhibitors of miR-122 in Huh7 cells; Huh7 miR-122 Renilla luciferase sensor, 48 h; neutral wells = 0, positive control = 100; activation (reporter increase), % at 12.5 µM; 0.3% of 340,000 active;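 active = mean replicate activation score at least 90 and every replicate individually at or above 90; inconclusive = only one of the two criteria met; inactive = neither criterion met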;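 also: higher luciferase means less miR-122 activity so hits act as miR-122 inhibitors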
UUG fidelity: yeast start codon fidelity modulation | S. cerevisiae UUG-firefly luciferase reporter, luminescence/redox ratio | activity score, % at 18.7 µM | hit rate 0.13% among 350,000 | AID 602363;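 active means replicate mean at a twofold rise or more, about +100% in these data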;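 further: firefly luciferase made from a UUG start codon reports start codon fidelity; reporter light over untreated wells divided by growth signal over untreated wells; some hits fall short of that in this replicate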
esBAF inh: inhibitors of esBAF chromatin remodeling in mouse ES cells | Bmi1-luciferase knock-in reporter, 24 h; 100% = twice the neutral-well signal | reporter increase, % at 12.5 µM | 2% of 350,000 active | AID 602393; in the data active = activation above about 40%; inconclusive = no clear call, values can overlap the other calls;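 also: 0% = median of the plate's neutral control wells and 100% = double that signal; a rise in the Bmi1 reporter signal indicates esBAF inhibition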
PglD inh: inhibitors of Campylobacter jejuni PglD acetyltransferase; AID 602405; purified PglD enzyme, DTNB colorimetric CoA detection; 0.098% of 360,000 active; inhibition, % at 12.5 µM; in the data active = inhibition above about 16%, passing the limit was not always enough; inconclusive = no clear call, values can overlap the other calls
Wnt act: activators of Wnt/beta-catenin signaling | Wnt/beta-catenin reporter cell assay, activator, plate reader | activation, % at 9.35 µM | 1.2% of 300,000 active; in the data active = activation above about 30%, passing the limit was not always enough; inconclusive = no clear call, values can overlap the other calls;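 also: 0% = neutral control wells and 100% = positive control wells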
MITF TRPM1 HTS: MITF TRPM1 promoter activation in melanoma cells; activation, % at 12.5 µM; SK-MEL-5 TRPM1-promoter luciferase, 24 h; % of positive control, neutral wells = 0; 0.75% of 300,000 active;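 active = mean activation of at least 80% with every replicate also reaching 80%; inconclusive = mean reaches 80% but some replicate falls short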;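 also: 0% = neutral control wells and 100% = parthenolide positive control wells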
The depositor's hits bear a star; ? = inconclusive; . = no result; [ ] = remark or other dose. Hits are enriched below; roughly 2.8% of the tested compounds scored in any of these assays.

cpd	mol	miR-122 sensor	UUG fidelity	esBAF inh
1	O=C(O)C1C2CCCCC2=C2CCCCC2C1C(=O)O (centres undefined)	-7	-14	-3
2	CO[C@@H]1CN(C)C(=O)c2ccc(NC(=O)NC(C)C)cc2OC[C@H](C)N(CCC(F)(F)F)C[C@@H]1C	-2[16.7 µM]	0	4
3	Cc1ccc(S(=O)(=O)N(C)C[C@@H]2Oc3cc(C#Cc4ccccc4)ccc3S(=O)(=O)N([C@@H](C)CO)C[C@H]2C)cc1	-3[16.7 µM]	-17	-5
4	CCCc1cc(C(N)=O)c(NC(=O)c2ccco2)s1	12	-16	26
5	S=c1[nH]nc(-c2ccncc2)n1/N=C/c1cn(-c2ccccc2)nc1-c1ccc(Cl)cc1	-4	-8	.
6	CSc1nnc(-c2ccncc2)n1/N=C/c1cn(-c2ccccc2)nc1-c1ccc(Cl)cc1	-5	.	-7
7	CCC(CC)c1nnc(NC(=O)c2ccc3ccccc3n2)s1	4	-38	53*
8	CCC(CC)c1nnc(NC(=O)c2cc(-c3ccccc3)nc3ccccc23)s1	.	.	.

cpd	PglD inh	Wnt act	MITF TRPM1 HTS
1	4	90*	8
2	-2	.	.
3	1	.	.
4	1	41*	.
5	4	48*	.
6	.	11	.
7	-1	.	11
8	.	.	-4

From compound 6 to 8, copied from above:
cpd	mol	miR-122 sensor	UUG fidelity	esBAF inh
6	CSc1nnc(-c2ccncc2)n1/N=C/c1cn(-c2ccccc2)nc1-c1ccc(Cl)cc1	-5	.	-7
7	CCC(CC)c1nnc(NC(=O)c2ccc3ccccc3n2)s1	4	-38	53*
8	CCC(CC)c1nnc(NC(=O)c2cc(-c3ccccc3)nc3ccccc23)s1	.	.	.

cpd	PglD inh	Wnt act	MITF TRPM1 HTS
6	.	11	.
7	-1	.	11
8	.	.	-4

Next section
cpd	mol	miR-122 sensor	UUG fidelity	esBAF inh
9	O=C(O)c1ccc(-c2noc(-c3cccc(F)c3)n2)cc1	.	-24	1
10	COc1ccc(CCN2CCCC(CN(C)C(=O)c3ccoc3)C2)cc1 (centres undefined)	-3	-24	62*
11	Cc1oc(C(C)(C)C)cc1C(=O)Nc1cccc(C(=O)O)c1	-3	-29	28
12	Cc1oc(C(C)(C)C)cc1C(=O)Nc1ccc(C(=O)O)cc1	5	-5	76*
13	CO[C@H]1CN(C)C(=O)c2ccc(NC(=O)c3cnccn3)cc2OC[C@H](C)N(C(=O)C2CC2)C[C@@H]1C	.	-4	-2
14	O=c1cc(-c2ccccc2Cl)oc2cc(O)cc(O)c12	.	1	58*
15	Nc1ccc(O)c2c(=O)cc(-c3ccccc3Cl)oc12	6	-16	.
16	COCC#Cc1ccc2c(c1)O[C@@H](CN(C)C(=O)c1ccccc1)[C@H](C)CN([C@@H](C)CO)S2(=O)=O	-1[16.7 µM]	25	-4

cpd	PglD inh	Wnt act	MITF TRPM1 HTS
9	-1	45*	53
10	3	?	37
11	-32	.	56
12	-1	.	68
13	-2	.	.
14	-1	-2	40
15	4	54*	109*
16	4	.	.

Going on with the list.
cpd	mol	miR-122 sensor	UUG fidelity	esBAF inh
17	CC1(C)NC(=O)N(CCOCCOc2ccccc2)C1=O	5	-6	.
18	CC1(C)NC(=O)N(CCOCCSc2ccccc2)C1=O	-4	.	61*
19	NC(=O)C1=CC2C3C=CC2(O)C(=O)OC3O1 (centres undefined)	136*	.	.
20	Cc1nn(C)c(C)c1S(=O)(=O)NCc1cccs1	109*	-14	-3
21	CCOC(=O)c1c(S(=O)(=O)NCc2cccs2)c(C)n(C)c1C	21	-4	0
22	C[C@H](CO)N1C[C@H](C)[C@@H](CN(C)C(=O)Nc2ccccc2)OCCCC[C@H](C)Oc2ccc(NC(=O)Nc3ccc(F)cc3)cc2C1=O	-5[16.7 µM]	-8	2
23	COc1ccc(/C(N)=N/OC(=O)C2CCCCC2)cc1OC	.	-8	51*
24	COc1ccc(-c2ccc(C(=O)C3CC3)cc2)cc1	.	-19	37

cpd	PglD inh	Wnt act	MITF TRPM1 HTS
17	-4	.	15
18	.	0	17
19	.	-2	-72
20	-3	.	.
21	-5	0	11
22	5	.	.
23	-5	26	88*
24	9	27	107*

The list goes on.
cpd	mol	miR-122 sensor	UUG fidelity	esBAF inh
25	COc1ccc(/C(N)=N/OC(=O)C2CCCCC2)cc1	-1	12	61*
26	N/C(=N\OC(=O)C1CCCCC1)c1cccc(Br)c1	-7	6	45*
27	COc1ccc(CC(=O)O/N=C(\N)c2ccc(OC)cc2)cc1	.	-24	.
28	C[C@@H]1CN([C@H](C)CO)S(=O)(=O)c2ccc(C#CC3CC3)cc2O[C@@H]1CN(C)C(=O)Cc1ccncc1	-18[16.7 µM]	-8	-11
29	COc1ccc(NC(=O)C2=Cc3cccc(OC)c3OC2)cc1	.	.	.
30	Cc1ccc(S(=O)(=O)N/N=C2/CC(c3ccccc3)Oc3ccccc32)cc1[N+](=O)[O-] (centres undefined)	-7	-12	41*
31	O=S(=O)(N/N=C1/CC(c2ccccc2)Oc2ccccc21)c1ccc(Br)cc1 (centres undefined)	19	-2	4
32	COc1cc(C2N=C(c3ccccc3)NO2)cc(Br)c1O (centres undefined)	5	-2	11

cpd	PglD inh	Wnt act	MITF TRPM1 HTS
25	-3	40*	47
26	5	.	108*
27	-7	23	.
28	-1	.	.
29	.	44*	52
30	-4	.	.
31	-6	.	.
32	5	.	-7
